Assay results as given in US11906524B2, “Urea biosensors and uses thereof” (Duke University, priority 2015, dated 2024).

Experiment: Urea titration of emission intensity spectra (Nanodrop3300) with ratiometric analysis, singly labeled conjugates
Type: binding
From the text: Determination of emission intensity spectra.
Ratiometric analysis of urea binding. […] 2
For a single urea-binding site, the fractional saturation is given by
[formula] where [L] is the ligand (urea) concentration and Kd the dissociation constant, ^trueKd for ytrue.
[formula] where ^appIλ2 and ^satIλ2 are the emission intensities of the monochromatic signal at wavelength λ2 of the ligand-free and ligand-bound protein, respectively.

B1: ctUBP6 W95C: ctUBP6 95C cysteine mutant (SEQ ID NO: 49), tested as Acrylodan and Badan conjugates (conjugate)
chain: MVEEPVDNKPGTDTSAEDTIKVGILHSLSGTMAISEVSLKDAELMAIEEINQAGGLLGKKIEPVIEDGASDWPTFAEKAKKLLQNDKVATVFGCCTSASRKAVLPVFEENNGLLWYPVQYEGMESSPNIFYTGAAPNQQIVPAVEWLLENKGKRFFLLGSDYVFPRTANKIIKAQLSAIGGELIAEEYTPLGHTDYSTIVNKIKTAKPDVVFNTLNGDSNVAFFKQLKDAGITSEDITVCSVSVAEEEIRGIGAENIKGHLVSWNYYQTTDTPENKEFVEKYKSKYGSDRVTDDPIEAAYIAVHLWAEAVKKAGSFEVEKVKEAAKGLEFKAPEGLVKIEGENQHLWKPVRIGEVQEDGLIKEIWSTSEAVRPDPYLKTYDWAKGLSDGGSHHHHHH
modifications: Acrylodan or Badan conjugate; ctUBP6_95C (95C substitution mutant with signal peptide replaced with M and a GGSHHHHHH at C-terminus)
Kd (ctUBP6 Acrylodan conjugate, nb = no binding, read-out: ^trueKd): 2.3 mM | Kd (ctUBP6 Badan conjugate, ^d = noisy data and or bad fit, read-out: ^appKd): 2.5 mM | Kd (ctUBP6 Badan conjugate, ^d = noisy data and or bad fit, read-out: ^trueKd): 2.7 mM

Where two headings read alike, the source gives them in different places.
